Laboratory results reported in ChEMBL document CHEMBL4725342, “Design, synthesis and structure-activity relationship study of piperazinone-containing thieno[3,2-d]pyrimidine derivatives as new PI3Kδ inhibitors” (Bioorg Med Chem Lett, 2020).

Species on record: Homo sapiens
Assay: Selectivity index, ratio of IC50 for PI3Kalpha (unknown origin) to IC50 for PI3Kdelta (unknown origin)

Structure (SMILES)	Ratio IC50
CCc1nc2ccccc2n1-c1nc(N2CCOCC2)c2sc(CN3CCN(C(=O)C4CC4)CC3=O)cc2n1	76
CCc1nc2ccccc2n1-c1nc(N2CCOCC2)c2sc(CN3CCN(C(=O)C4CCC4)CC3=O)cc2n1	84
C=CCN1CCN(Cc2cc3nc(-n4c(CC)nc5ccccc54)nc(N4CCOCC4)c3s2)C(=O)C1	184

Now from value to compound:

Ratio IC50	Structure (SMILES)
119	CCc1nc2ccccc2n1-c1nc(N2CCOCC2)c2sc(CN3CCN(C4CCCC4)C(=O)C3)cc2n1
84	CCc1nc2ccccc2n1-c1nc(N2CCOCC2)c2sc(CN3CCN(C4CCCC4)CC3=O)cc2n1
